Patent US20140086936A1

Columns and labels:
[1] = molecular target: T1, Recombinant purified human matriptase (amino acids 596-855) (human), Q9Y5Y6; experiment: enzyme inhibition, selectivity profile, Morrison tight-binding fit
T1 chain: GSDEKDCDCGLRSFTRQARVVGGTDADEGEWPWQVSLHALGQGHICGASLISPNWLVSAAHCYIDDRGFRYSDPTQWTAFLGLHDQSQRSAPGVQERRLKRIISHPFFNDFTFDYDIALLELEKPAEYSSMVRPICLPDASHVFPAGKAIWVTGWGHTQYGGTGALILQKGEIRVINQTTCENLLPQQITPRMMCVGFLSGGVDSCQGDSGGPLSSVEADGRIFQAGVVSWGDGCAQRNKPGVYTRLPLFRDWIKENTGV

[2] = molecular target: T1, Recombinant purified human matriptase …; experiment: enzyme inhibition, fluorogenic substrate Boc-Gln-Ala-Arg-AMC, Morrison tight-binding fit

Q: How did the Ki [1] turn out when RQAR (modifications not checked) [RQAR-ketobenzothiazole] was run?
A: 0.011 nM

Q: What about the Ki [2] of the same binder?
A: 0.011 nM
